Patent publication US8809010B2, “Method for prophylactic treatment of alzheimer's disease using inhibitors of glutaminyl cyclase and glutamate cyclases” (Probiodrug AG, priority 2003, dated 2014)
Like-named read-outs stand apart in the source and are kept apart here.

Sequences of proteins named here, by UniProt entry; tags and fusion partners are left off. Residues count along the entry.
UniProt Q16769, 29-361: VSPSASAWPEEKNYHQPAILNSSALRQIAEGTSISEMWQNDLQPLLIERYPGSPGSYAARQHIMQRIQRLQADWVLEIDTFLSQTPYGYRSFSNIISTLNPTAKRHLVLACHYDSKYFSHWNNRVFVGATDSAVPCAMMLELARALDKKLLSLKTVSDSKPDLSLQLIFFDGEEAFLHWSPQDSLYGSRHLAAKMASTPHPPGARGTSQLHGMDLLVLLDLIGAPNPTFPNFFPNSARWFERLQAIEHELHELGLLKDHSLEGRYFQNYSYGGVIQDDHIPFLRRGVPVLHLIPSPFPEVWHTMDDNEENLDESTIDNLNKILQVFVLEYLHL

Molecular target: T1, human QC (Homo sapiens, UniProt Q16769)
T1 construct: The cDNA of the mature QC starting with codon 38 was fused in frame with the plasmid encoded 6× histidine tag; 6xHis; made in house; host or cells: Pichia pastoris X33 (pPICZαB, secreted); also E. coli M15 (pQE-31)
Assay: Continuous spectrophotometric QC assay (glutamate dehydrogenase coupled), substrate kinetics;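 also: initial rates read on a microplate reader at 30 °C, with enzyme activity quantified against an ammonia calibration curve under the same assay conditions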
Assay type: biochemical
Conditions: for Ki* (mM): for substrate inhibition

[1] = 0.05M Tris-HCl, pH 8.0, 0.5 M KCl

| Structure (SMILES) | kcat | Ki* (mM) | Ki (mM) (0.05M Tris-HCl, pH 8.0) | kcat (0.05M Tris-HCl, pH 8.0) | Ki (mM) [1] | kcat [1] |
| --- | --- | --- | --- | --- | --- | --- |
| C[C@H](NC(=O)[C@H](Cc1ccccc1)NC(=O)[C@@H](N)CCC(N)=O)C(N)=O [H-Gln-Phe-Ala-NH2] | 109 ± 1 s⁻¹ | n.i. | – | – | – | – |
| NC(=O)CC[C@H](NC(=O)[C@@H](N)CCC(N)=O)C(=O)N[C@@H](Cc1ccc(O)cc1)C(=O)N[C@@H](Cc1ccccc1)C(N)=O [H-Gln-Gln-Tyr-Phe-NH2] | 41.4 ± 0.4 s⁻¹ | n.i. | – | – | – | – |
| NC(=O)CC[C@H](N)C(=O)N[C@@H](CO)C(=O)N[C@@H](Cc1ccc(O)cc1)C(=O)N[C@@H](Cc1ccccc1)C(N)=O [H-Gln-Ser-Tyr-Phe-NH2] | 52.8 ± 0.8 s⁻¹ | n.i. | – | – | – | – |
| CC[C@H](C)[C@H](NC(=O)CNC(=O)[C@H](CCCNC(=N)N)NC(=O)[C@@H](N)CCC(N)=O)C(N)=O [H-Gln-Arg-Gly-Ile-NH2] | 33.5 ± 0.4 s⁻¹ | n.i. | n.i. | 31 ± 1 s⁻¹ | n.i. | 29.8 ± 0.5 s⁻¹ |
| CC(C)C[C@H](NC(=O)[C@H](CC(=O)O)NC(=O)[C@H](CCC(=O)O)NC(=O)[C@@H](N)CCC(N)=O)C(N)=O [H-Gln-Glu-Asp-Leu-NH2] | 45.8 ± 0.5 s⁻¹ | n.i. | n.i. | 46.6 ± 0.5 s⁻¹ | n.i. | 45.6 ± 0.5 s⁻¹ |
| C[C@H](NC(=O)[C@H](Cc1ccc(O)cc1)NC(=O)[C@@H](N)CCC(N)=O)C(=O)O [H-Gln-Tyr-Ala-OH] | 125 ± 1 s⁻¹ | n.i. | – | – | – | – |
| NC(=O)CC[C@H](N)C(=O)N[C@@H](Cc1c[nH]cn1)C(=O)N[C@@H](Cc1ccc(O)cc1)C(=O)N[C@@H](Cc1ccccc1)C(N)=O [H-Gln-His-Tyr-Phe-NH2] | 55.4 ± 0.7 s⁻¹ | n.i. | – | – | – | – |
| CC[C@H](C)[C@H](NC(=O)CNC(=O)[C@H](CC(N)=O)NC(=O)[C@@H](N)CCC(N)=O)C(N)=O [H-Gln-Asn-Gly-Ile-NH2] | 56.6 ± 0.5 s⁻¹ | n.i. | – | – | – | – |
| C[C@H](NC(=O)[C@H](Cc1ccc(O)cc1)NC(=O)[C@H](CCC(=O)O)NC(=O)[C@@H](N)CCC(N)=O)C(N)=O [H-Gln-Glu-Tyr-Ala-NH2] | 42.1 ± 0.4 s⁻¹ | n.i. | – | – | – | – |
| C[C@H](NC(=O)[C@H](Cc1c[nH]c2ccccc12)NC(=O)[C@@H](N)CCC(N)=O)C(N)=O [H-Gln-Trp-Ala-NH2] | 47.0 ± 0.7 s⁻¹ | n.i. | n.i. | 50.8 ± 0.6 s⁻¹ | n.i. | 50.0 ± 0.4 s⁻¹ |
| C[C@H](NC(=O)[C@H](CCC(=O)O)NC(=O)[C@@H](N)CCC(N)=O)C(=O)N[C@@H](Cc1ccccc1)C(N)=O [H-Gln-Glu-Ala-Phe-NH2] | 39 ± 1 s⁻¹ | n.i. | – | – | – | – |
| N=C(N)NCCC[C@H](NC(=O)[C@@H](N)CCC(N)=O)C(=O)N[C@@H](Cc1ccc(O)cc1)C(=O)N[C@@H](Cc1ccccc1)C(N)=O [H-Gln-Arg-Tyr-Phe-NH2] | 29.6 ± 0.3 s⁻¹ | n.i. | – | – | – | – |
| NC(=O)CC[C@H](N)C(=O)N[C@@H](CCC(=O)O)C(=O)N[C@@H](Cc1ccc(O)cc1)C(=O)N[C@@H](Cc1ccccc1)C(N)=O [H-Gln-Glu-Tyr-Phe-NH2] | 46 ± 1 s⁻¹ | n.i. | – | – | – | – |
| C[C@H](NC(=O)[C@H](C)NC(=O)[C@H](CCC(=O)O)NC(=O)[C@@H](N)CCC(N)=O)C(N)=O [H-Gln-Glu-Ala-Ala-NH2] | 46 ± 1 s⁻¹ | n.i. | – | – | – | – |
| CC(C)C[C@H](NC(=O)[C@H](CCCNC(=N)N)NC(=O)[C@H](CCCCN)NC(=O)[C@@H](N)CCC(N)=O)C(N)=O [H-Gln-Lys-Arg-Leu-NH2] | 33.4 ± 0.5 s⁻¹ | n.i. | n.i. | 29.4 ± 0.5 s⁻¹ | n.i. | 31.6 ± 0.3 s⁻¹ |
| NC(=O)CC[C@H](N)C(=O)N[C@@H](CCC(=O)O)C(=O)N[C@@H](Cc1ccc(O)cc1)C(N)=O [H-Gln-Glu-Tyr-NH2] | 45.1 ± 0.4 s⁻¹ | n.i. | – | – | – | – |
